Results: PubChem BioAssay AID1654 (Sanford-Burnham Center for Chemical Genomics, 2009)
The list shows a part of the results, in another mix than the full data. Some salts and complexes are drawn in separate pieces, as the source files them; their charges need not balance. Activity calls are given as the source filed them. No stated cut-off is given here; in the data, active means inhibition above about 50%; inactive means the rest.

Protein sequences, listed by entry. Tags and fused reporters are not part of them.
UniProt P51452, whole entry: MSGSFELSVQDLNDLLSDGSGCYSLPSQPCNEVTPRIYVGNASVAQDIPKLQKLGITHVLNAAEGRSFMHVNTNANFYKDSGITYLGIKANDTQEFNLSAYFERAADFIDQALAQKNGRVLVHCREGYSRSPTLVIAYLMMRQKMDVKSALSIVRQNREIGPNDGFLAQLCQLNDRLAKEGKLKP

target: Dual specificity protein phosphatase 3 (Homo sapiens) (UniProt P51452); assay: VHR1 phosphatase inhibitors, primary screen, biochemical, absorbance, uHTS (AID 1654); details: recombinant VHR phosphatase, pNPP absorbance; at 13.3 µM; hits give high values

SMILES	inhibition
CCOC(=O)c1ccc(NP(C)(=O)Oc2ccc(Cl)cc2)cc1 (stereo unspecified)	inactive: -4.8%
CP(=O)(OC12CC3CC(CC(C3)C1)C2)OC12CC3CC(CC(C3)C1)C2	inactive: 6.2%
COc1ccccc1OP(C)(=O)Nc1ccccc1Br (stereo unspecified)	inactive: 16%
CC(C)(C)c1ccc(OP(C)(=O)O)cc1	inactive: 24%
CP(=O)(Nc1ccc(Cl)cc1)Oc1ccc(F)cc1 (stereo unspecified)	inactive: 31.5%
CN(C)C(=O)c1c([N+](=O)[O-])cc([N+](=O)[O-])cc1[N+](=O)[O-]	inactive: 4%
CCN(CC)CC(O)COC(=O)C(O)(c1ccccc1)C1CCCCC1 (stereo unspecified)	inactive: 17.9%
COc1ccc(OP(C)(=O)Nc2ccc(Br)cc2)cc1 (stereo unspecified)	inactive: 5.4%
COc1ccccc1OP(C)(=O)Nc1c(C)n(C)n(-c2ccccc2)c1=O (stereo unspecified)	inactive: 17.3%
O=C(OCCCN1CCCC1)C(O)(c1ccccc1)C1CCCCC1 (stereo unspecified)	inactive: -2.5%
CP(=O)(Oc1ccccc1)N1CCOC1=O (stereo unspecified)	inactive: 13.6%
CCc1ccc(OP(C)(=O)Nc2cccnc2)cc1 (stereo unspecified)	inactive: 9.9%
Cc1c(NP(C)(=O)Oc2ccc(C(C)C)cc2)c(=O)n(-c2ccccc2)n1C (stereo unspecified)	active: 55.5%
O=[N+]([O-])c1cc([N+](=O)[O-])c(Nc2ccccn2)c([N+](=O)[O-])c1	inactive: 22.2%
CP(=O)(Nc1ccccn1)Oc1ccccc1 (stereo unspecified)	inactive: -1.4%
COc1ccccc1OP(C)(=O)Nc1ccc(C)cc1C (stereo unspecified)	inactive: 21.4%
CCc1ccc(OP(C)(=O)O)cc1	inactive: 7.3%
COc1ccccc1OP(C)(=O)Nc1ccc(Br)cc1 (stereo unspecified)	inactive: 2.5%
COc1ccc(OP(C)(=O)Nc2ccccn2)cc1 (stereo unspecified)	inactive: 14%
CN(C)CCOC(=O)C(O)(c1ccccc1)C1CCCC1 (stereo unspecified)	inactive: 41.6%
Cc1nc2ccc3ccccc3c2o1.O=[N+]([O-])c1cc([N+](=O)[O-])c(O)c([N+](=O)[O-])c1	inactive: 11.3%

SMILES	inhibition
CP(=O)(Nc1ccc(Cl)cc1Cl)Oc1ccccc1 (stereo unspecified)	inactive: 16.6%
CP(=O)(OCCOc1ccccc1)OCCOc1ccccc1	inactive: 2%
Cc1cc(C)cc(OP(C)(=O)Nc2cccc(C(F)(F)F)c2)c1 (stereo unspecified)	inactive: 15.1%
COc1ccccc1OP(C)(=O)Nc1ccc(C)c(C)c1 (stereo unspecified)	inactive: -7.7%
COc1ccc(OP(C)(=O)Nc2ccccc2Br)cc1 (stereo unspecified)	inactive: 14.7%
CCN(CC)CCCOC(=O)C(O)(c1ccccc1)C1CCCCC1 (stereo unspecified)	inactive: 13.4%
CP(=O)(Nc1ccccc1)Oc1ccc(F)cc1 (stereo unspecified)	inactive: 19.2%
CCCCCOc1ccc(NP(C)(=O)Oc2ccc(Cl)cc2Cl)cc1 (stereo unspecified)	inactive: 5%
O=[N+]([O-])c1cc([N+](=O)[O-])c(OC2CCCCC2O)c([N+](=O)[O-])c1 (stereo unspecified)	inactive: 17.6%
CCOC(=O)c1ccc(NP(C)(=O)Oc2ccc(F)cc2)cc1 (stereo unspecified)	inactive: 44.9%
COc1ccc(OP(C)(=O)Nc2ccc(SC(F)(F)F)cc2)cc1 (stereo unspecified)	inactive: 3.5%
O=C(OC1CN2CCC1CC2)c1ccc([N+](=O)[O-])cc1 (stereo unspecified)	inactive: 23.7%
O=C(OCCN1CCN(CCOCc2ccccc2)CC1)C(O)(c1ccccc1)c1ccccc1	inactive: -3.6%
COc1ccc2c(c1O)-c1c(O)c(OC)cc3c1[C@H](C2)[N+](C)(C)CC3.O=[N+]([O-])c1cc([N+](=O)[O-])c([O-])c([N+](=O)[O-])c1[O-]	inactive: 18.7%
CP(=O)(Nc1ccccc1F)Oc1ccccc1 (stereo unspecified)	inactive: 10%
CC(C)c1ccc(OP(C)(=O)Nc2ccc(SC(F)(F)F)cc2)cc1 (stereo unspecified)	inactive: -2.7%
CP(=O)(Nc1ccc2c(c1)OCCO2)Oc1ccccc1 (stereo unspecified)	inactive: 4.4%
Cc1ccccc1NP(C)(=O)Nc1ccccc1C	inactive: 8.3%
CP(=O)(Nc1ccc(SC(F)(F)F)cc1)Oc1ccc(F)cc1 (stereo unspecified)	inactive: 25.3%
CCOP(C)(=S)SCC(=O)NC(C)(CC)C(=O)O (stereo unspecified)	inactive: -9%
O=[N+]([O-])c1ccc(OP2(=O)COCCO2)cc1 (stereo unspecified)	inactive: 27.7%

SMILES	inhibition
Cc1cc(-c2cccc3ccccc23)c(C)cn1.O=[N+]([O-])c1cc([N+](=O)[O-])c(O)c([N+](=O)[O-])c1	inactive: 13.6%
O=[N+]([O-])c1cc([N+](=O)[O-])c(NCC2CCS(=O)(=O)C2)c([N+](=O)[O-])c1 (stereo unspecified)	inactive: -11.4%
COc1ccc(OP(C)(=O)Nc2cccc(Br)c2)cc1 (stereo unspecified)	inactive: 15.1%
CN(C)CCOC(=O)C(O)(c1ccccc1)C1CCCCC1 (stereo unspecified)	inactive: 19.9%
COc1ccc(NP(C)(=O)Oc2ccccc2OC)cc1 (stereo unspecified)	inactive: 2.7%
CN1CCCCC1COC(=O)C1(O)c2ccccc2CCc2ccccc21 (stereo unspecified)	inactive: 7.5%
COc1ccccc1OP(C)(=O)Nc1c(C)cccc1C (stereo unspecified)	inactive: 31.6%
CCCOc1ccc(NP(C)(=O)Oc2ccc(Cl)cc2)cc1 (stereo unspecified)	inactive: 6.7%
CP(=O)(Nc1ccc(SC(F)(F)F)cc1)Oc1ccccc1 (stereo unspecified)	inactive: 7.4%
O=[N+]([O-])c1cc([N+](=O)[O-])c(Nc2nnnn2CCO)c([N+](=O)[O-])c1	inactive: 6.9%
CCOC(=O)C(CC)C1=NC(C)(C)Cc2ccccc21.O=[N+]([O-])c1cc([N+](=O)[O-])c(O)c([N+](=O)[O-])c1 (stereo unspecified)	inactive: 26.9%
Cc1nc2ccc3ccccc3c2s1.O=[N+]([O-])c1cc([N+](=O)[O-])c(O)c([N+](=O)[O-])c1	inactive: -0.8%
O=[N+]([O-])c1cc([N+](=O)[O-])c(-n2nnc3ccccc32)c([N+](=O)[O-])c1	inactive: 18.4%
Cc1ccc(C)c(NP(C)(=O)Oc2ccccc2)c1 (stereo unspecified)	inactive: -0.2%
Cc1cc(C)cc(OP(C)(=O)Nc2ccccn2)c1 (stereo unspecified)	inactive: 16.1%
CP(=O)(Nc1cccc(Br)c1)Oc1ccccc1 (stereo unspecified)	inactive: -5.8%
COc1ccccc1OP(C)(=O)Nc1cccc(Br)c1 (stereo unspecified)	inactive: 11.2%
CCOC(=O)c1ccc(NP(C)(=O)Oc2cc(C)cc(C)c2)cc1 (stereo unspecified)	inactive: -1.6%
Cc1cc(C)cc(OP(C)(=O)Nc2ccc(C)cc2C)c1 (stereo unspecified)	inactive: 0%
